Data reported in patent US8071650B2, “Thiourea derivatives and the pharmaceutical compositions containing the same” (Pacific Corporation, priority 2000, dated 2011).

The chains behind the UniProt entries cited, without tags or fusion partners.
UniProt O35433, whole entry: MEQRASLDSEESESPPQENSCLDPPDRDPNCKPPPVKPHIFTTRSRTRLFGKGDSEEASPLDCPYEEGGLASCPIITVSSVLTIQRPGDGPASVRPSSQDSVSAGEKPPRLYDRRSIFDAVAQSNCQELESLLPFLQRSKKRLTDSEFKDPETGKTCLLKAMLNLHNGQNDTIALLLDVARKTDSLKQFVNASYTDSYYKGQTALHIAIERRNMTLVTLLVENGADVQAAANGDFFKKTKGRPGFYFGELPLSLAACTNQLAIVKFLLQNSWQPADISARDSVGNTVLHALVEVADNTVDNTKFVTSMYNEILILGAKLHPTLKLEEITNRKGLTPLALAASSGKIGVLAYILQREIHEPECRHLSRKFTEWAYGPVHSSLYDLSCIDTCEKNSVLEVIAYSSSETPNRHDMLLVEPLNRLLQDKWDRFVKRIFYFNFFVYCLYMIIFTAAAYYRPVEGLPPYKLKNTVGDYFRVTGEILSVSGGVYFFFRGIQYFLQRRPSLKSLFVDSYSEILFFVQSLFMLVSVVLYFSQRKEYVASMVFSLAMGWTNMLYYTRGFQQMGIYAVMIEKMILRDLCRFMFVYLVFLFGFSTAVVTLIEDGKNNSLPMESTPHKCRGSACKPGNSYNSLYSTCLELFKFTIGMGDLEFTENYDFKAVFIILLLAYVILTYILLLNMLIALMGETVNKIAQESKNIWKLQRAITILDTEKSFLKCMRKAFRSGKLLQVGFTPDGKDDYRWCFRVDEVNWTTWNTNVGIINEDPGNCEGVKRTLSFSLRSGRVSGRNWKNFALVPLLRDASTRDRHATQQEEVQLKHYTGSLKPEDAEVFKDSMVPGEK

Legend:
vanilloid receptor = vanilloid receptor (Rattus norvegicus, UniProt O35433); assay: 45Ca influx test, antagonistic activity against capsaicin (Calcium Uptake Test, IC50); settings: read-out: Calcium Uptake Test (IC50), neonatal SD rat DRG neurons, inhibition of response to capsaicin 0.5 μM
[1] = molecular target: cation channel connected to vanilloid receptor (Rattus norvegicus, UniProt O35433); assay: Channel activity assay (Patchclamp Test); settings: Table 1b; potency relative to capsazepine
Male ICR mice = assay: Analgesic activity test: mouse writhing test by inducing with phenyl-p-quinone; settings: dose 1 mg/kg intraperitoneally, 30 min before phenyl-p-quinone

Row | IC50 (vanilloid receptor; Table 1b) [nM] | Patchclamp Test (antagonistic activities) [1] | IC50 (vanilloid receptor; Table 1c) [nM] | Compound | Analgesic effect (% Inhibition) (Male ICR mice) [%]
1 | 250 | + |  | CC(C)(C)COc1cc(C(C)(C)C)ccc1CNC(=S)NCc1ccc(NS(C)(=O)=O)cc1 | 
2 | 19 | + |  | CC(C)COc1cc(C(C)(C)C)ccc1CNC(=S)NCc1ccc(NS(C)(=O)=O)cc1 | 
3 |  |  | 380 | COc1cc(CCCN(CCc2ccccc2)C(=S)NCCc2ccccc2)ccc1O | 57
4 |  | + |  | CCCCOc1cc(C(C)(C)C)ccc1CNC(=S)NCc1ccc(NS(C)(=O)=O)cc1 | 
5 |  | + |  | CC(C)(C)c1ccc(CNC(=S)NCc2ccc(NS(C)(=O)=O)cc2)c(OCc2ccccc2)c1 | 
6 | 1140 | + |  | CCOc1cc(C(C)(C)C)ccc1CNC(=S)NCc1ccc(NS(C)(=O)=O)cc1 | 
7 |  | + |  | CC(C)Oc1cc(C(C)(C)C)ccc1CNC(=S)NCc1ccc(NS(C)(=O)=O)cc1 | 
8 |  | + |  | COCOc1cc(C(C)(C)C)ccc1CNC(=S)NCc1ccc(NS(C)(=O)=O)cc1 | 
9 |  | + |  | CCCOc1cc(C(C)(C)C)ccc1CNC(=S)NCc1ccc(NS(C)(=O)=O)cc1 | 
10 | 63 | + |  | COCCOc1cc(C(C)(C)C)ccc1CNC(=S)NCc1ccc(NS(C)(=O)=O)cc1 | 

Where two headings read alike, the source gives them in different places.
